These compounds were tested against Type-1 angiotensin II receptor (Bos taurus, UniProt P25104) (assay: In vitro Angiotensin II receptor antagonism in bovine adrenal cortex tissue.).
Format: functional, tissue-based

Chains of the proteins cited; added tags and fusions are not shown.
UniProt P25104, whole entry: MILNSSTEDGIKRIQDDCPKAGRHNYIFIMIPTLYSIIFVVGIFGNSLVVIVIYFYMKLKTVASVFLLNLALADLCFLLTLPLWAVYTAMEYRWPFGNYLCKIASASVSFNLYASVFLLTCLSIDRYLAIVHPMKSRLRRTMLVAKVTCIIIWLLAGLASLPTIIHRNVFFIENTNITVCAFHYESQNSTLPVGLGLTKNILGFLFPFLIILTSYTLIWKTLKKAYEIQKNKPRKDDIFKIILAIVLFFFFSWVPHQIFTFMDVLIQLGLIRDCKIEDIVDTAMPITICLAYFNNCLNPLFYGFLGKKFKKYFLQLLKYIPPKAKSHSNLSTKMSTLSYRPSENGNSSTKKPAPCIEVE

| SMILES | IC50 [nM] |
| --- | --- |
| CCCCc1nc2ccc([C@@]3(C)C[C@H]4CCCCN4O3)cc2c(=O)n1Cc1ccc(-c2ccccc2-c2nnn[nH]2)cc1 | 22 |
| CCCCc1nc2ccc([C@@H]3C[C@H]4CCCCN4O3)cc2c(=O)n1Cc1ccc(-c2ccccc2-c2nn[nH]n2)cc1 | 38 |
| CCCCc1nc2ccc([C@]3(C)C[C@H]4CCCCN4O3)cc2c(=O)n1Cc1ccc(-c2ccccc2-c2nnn[nH]2)cc1 | 47 |

Source: ChEMBL document CHEMBL1127932, “6-isoxazolinyl and isoxazolidinyl substituted quinazolinones as angiotensin II receptor antagonists” (Bioorg Med Chem Lett, 1994)
